Results from US11547300B2, “Methods of treating and imaging tumor micrometastases using photoactive immunoconjugates” (priority 2014, dated 2023).
Entries after “also recorded” stand apart in the source; their conditions may differ.

Tests used:
[1] = tested on: EOC micrometastases; test: Longitudinal fluorescence microendoscopy of tumor burden during treatment; assay type: in vivo, mouse
Procedure: Longitudinal fluorescence microendoscopy imaging of tumor burden in mice receiving taPIT versus Cet-BPD (without photoactivation) is shown over time (FIGS. 8D and E). […] Note that taPIT was also performed on day 5, thus, some of these mice display reductions in tumor burden prior to day 8. […] Without this correction, treatment efficacy is more difficult to discern due to the intrinsic heterogeneity of microscopic disease. Thus, quantitative micrometastatic burden imaging will be critical for evaluation of treatment efficacy in preclinical and clinical studies of residual microscopic disease.
In vivo fluorescence microendoscopy.
Fluorescence microendoscopy image analysis.

[2] = TaPIT toxicology: survival >72 hours after treatment and bowel histology; assay type: in vivo, mouse
Source text: TaPIT selectively destroys micrometastases. There is a critical need for tumor-selective therapies that can address residual micrometastases. […] The inventors next tested if this tumor-selective activation translates to a reduction in nonspecific phototoxicity.
Intraperitoneal taPIT and chemotherapy. EOC mice were randomized into the following groups: (i) no treatment; (ii) Cet-BPD without taPIT (0 J·cm^−1), 1 cycle; (iii) Cet-BPD without taPIT (0 J·cm^−1), 2 cycles; (iv) Cet-BPD with taPIT (50 J·cm^−1), 2 cycles; and, (v) Cet-BPD with taPIT (50-100 J·cm^−1), combined with 3-5 and 10-15 mg·kg^−1 body weight of cisplatin and paclitaxel, 1-2 cycles. All injections were done i.p. in 1 mL of sterile phosphate-buffered saline. The BPD dose was fixed at 2 mg·kg^−1 body weight. […] Treatment-associated mortality is defined as mice surviving less than 72 hours after treatment. Mice were illuminated 8-24 hours (taPIT) after immunoconjugate injection as follows. Mice were anesthetized with isoflurane during treatment and imaging. The light doses are defined as the energy delivered per unit length of the diffusing fiber tip per peritoneal quadrant (i.e., one-fourth of the total fluence per mouse). The inventors performed i.p. light irradiation as previously described. del Carmen et al., J Natl Cancer Inst 97:1516-1524 (2005). Briefly, all mice were injected i.p. with 2 mL of a 0.1% intralipid solution (Baxter Healthcare) to enhance light scattering. A cylindrically diffusing-tip fiber, connected to a 690 nm diode laser (High Power Devices), was introduced into the peritoneal cavity of a supine anesthetized animal via a centrally placed 14-gauge catheter that traversed the peritoneal wall. The 690 nm light was delivered at an irradiance of 150 (for 50 J·cm^−1 taPIT) or 300 mW·cm^−1 (for 100 J·cm^−1 taPIT). One-fourth of the total light energy was delivered to each intraperitoneal quadrant over equivalent periods.

[3] = ~7 BPD molecules per mAb; cited from earlier work
[4] = tested on: mouse and human EGFR; test: Cet-BPD binding to mouse and human EGFR, internalization and activation; assay type: cell-based, murine and human cells
Source text: To address the question of inflated tumor selectivity due to a lack of cross-reactivity with basal mouse EGFR levels, the inventors investigated Cet-BPD binding to both mouse and human EGFR.

[5] = tested on: human EOC cells (NIH:OVCAR5) micrometastases; test: TaPIT efficacy: micrometastatic burden by qRT-PCR; assay type: in vivo, mouse
Procedure: To explore the potency of high-dose taPIT against microscopic tumors in large cavities, EOC mice bearing disseminated micrometastases were treated using a diffusing tip fiber for wide-field irradiation (FIG. 4F). A quantitative reverse transcription polymerase chain reaction (qRT-PCR) assay was employed to assess the number of viable, human EOC cells rigorously in biopsies and entire peritoneal cavities following treatment. Control, untreated EOC mice were characterized for the final tumor burden by qRT-PCR at time points matched to the various treatment courses. Treated mice received intraperitoneal administration of the immunoconjugate in the presence or absence of photoactivation. […] NIR photoactivation for taPIT (2 cycles) achieved a statistically significant mean reduction in tumor burden of 89% relative to untreated mice (FIG. 8B). This level of tumor reduction matches the synergistic reduction found using unconjugated BPD (2 cycles) and cetuximab (4 cycles) in combination. As a benchmark for nearly complete response, taPIT (1 cycle) with follow-up combination platinum- and taxane-based chemotherapy (1 cycle) achieves 97% mean tumor burden reduction (FIG. 8A; a second cycle added no significant benefit). […]

[6] = tested on: EOC micrometastases; conditions: mouse, in vivo

Substance: Cet-BPD
- integrated tumor fluorescence ([1]; taPIT, between days 11 and 14): decreased markedly
- tumor burden by integrated tumor fluorescence ([1]; without photoactivation): increasing tumor burden

Substance: Cet-BPD(1:7)
- fraction of EOC mice surviving taPIT (>72 hours), versus Cet-BPD(1:4) ([2]; 0, 50, 100 J·cm^−1, FIG. 8A): enhanced; also recorded: increased survival
- nonspecific phototoxicity compared to Cet-BPD(1:4) ([2]; FIG. 8A): reduced nonspecific phototoxicity
- bowel damage by bowel histology ([2]; high-dose taPIT): does not cause bowel damage
- BPD quenching [3]: 7 fold
- EGFR binding specificity, cellular internalization and activation profiles, murine versus human cells [4]: similar
- number of EOC cells (qRT-PCR) ([5]; in the absence of photoactivation): trend in reduced number of EOC cells
- mean tumor burden reduction ([5]; taPIT (1 cycle) with follow-up platinum- and taxane-based chemotherapy (1 cycle)): 97%

Substance: Tra-BPD(1:5)
- pharmacokinetics relative to Cet-BPD [6]: altered pharmacokinetics
- tumor-to-tissue ratios relative to Cet-BPD [6]: reduced tumor-to-tissue ratios
